This test has as its target protein kinase A (PKA) (human) (UniProt P17612).

For “full length mouse PKIα (from UniProt P63248 1-76) (natural protein)”, the IC50 of inhibition of PKA kinase activity, dose-response curve (cell-free Z′-LYTE Peptide Kinase Assay, purified kinase) was determined as 0.11 nM.

For the origin of these results see publication PMC7878667, “The Kinase Specificity of Protein Kinase Inhibitor Peptide” (Frontiers in Pharmacology, 2021).
